The assay addresses T1, histamine-H2-receptors (Cavia porcellus, UniProt P47747).
T1 construct: in vitro on the isolated atrium of guinea pigs; from tissue; host or cells: isolated guinea pig atrium
The experiment in a line: pA2 determination of H2-antagonistic activity in vitro on the isolated atrium of guinea pigs. The conditions noted are these: isolated guinea pig atrium. From the text:
A recognized method of measuring H2 -antagonistic activity is based on determination of the pA2 -values in vitro on the isolated atrium of guinea pigs (cf. Ariens, Molecular Pharmacology, Vol. 1, Academic Press, New York, 1964).

Amino acid sequences for entries named in this document (tags omitted).
UniProt P47747, whole entry: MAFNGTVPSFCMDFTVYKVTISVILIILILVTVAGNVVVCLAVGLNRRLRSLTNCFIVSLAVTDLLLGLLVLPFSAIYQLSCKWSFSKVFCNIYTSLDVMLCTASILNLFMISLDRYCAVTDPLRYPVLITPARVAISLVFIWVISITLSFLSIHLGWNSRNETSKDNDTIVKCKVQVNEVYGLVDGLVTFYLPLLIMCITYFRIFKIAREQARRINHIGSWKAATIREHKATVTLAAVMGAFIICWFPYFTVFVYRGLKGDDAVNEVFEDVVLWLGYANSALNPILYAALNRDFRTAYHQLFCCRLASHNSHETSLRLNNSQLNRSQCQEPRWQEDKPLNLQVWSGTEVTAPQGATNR

Structures are written as SMILES.

On to `CN/C(=N/CCSCc1nc[nH]c1C)NC#N` [Cimetidine, cimetidine], for which the Kb was 617 nM.

What is called Kb is the equilibrium dissociation constant of an antagonist, usually derived from a functional assay.

The values above are taken from patent publication US4559344A, “Pyridine-pyrimidinone derivatives, a process for their production and H -antagonist medicament containing these compounds” (Ludwig Heumann & Co. GmbH, priority 1983, dated 1985).
